{"source": "patent US11986529B2", "about": "“Pharmaceutical compositions and related methods of delivery” (priority 2008, dated 2024)", "test": "Formulated cargo versus cargo given concomitantly with mock formulation, rat jejunum", "details": "AUC of cargo in basic formulation versus cargo in aqueous solution given concomitantly with mock formulation; jejunum of non-anesthetized rats", "data": [{"substance": "Dextran", "values": [{"measurement": "Formulated versus unformulated (fold activity)", "result": 1.7, "unit": "fold"}]}]}
